Experimental data reported in US8933129B2, “Compounds and methods for modulating activity of calcium release channels” (State of Oregon by and through the State Board of Higher …, priority 2009, dated 2015).

Chains of the proteins cited; added tags and fusions are not shown.
UniProt Q92736, whole entry, species assumed: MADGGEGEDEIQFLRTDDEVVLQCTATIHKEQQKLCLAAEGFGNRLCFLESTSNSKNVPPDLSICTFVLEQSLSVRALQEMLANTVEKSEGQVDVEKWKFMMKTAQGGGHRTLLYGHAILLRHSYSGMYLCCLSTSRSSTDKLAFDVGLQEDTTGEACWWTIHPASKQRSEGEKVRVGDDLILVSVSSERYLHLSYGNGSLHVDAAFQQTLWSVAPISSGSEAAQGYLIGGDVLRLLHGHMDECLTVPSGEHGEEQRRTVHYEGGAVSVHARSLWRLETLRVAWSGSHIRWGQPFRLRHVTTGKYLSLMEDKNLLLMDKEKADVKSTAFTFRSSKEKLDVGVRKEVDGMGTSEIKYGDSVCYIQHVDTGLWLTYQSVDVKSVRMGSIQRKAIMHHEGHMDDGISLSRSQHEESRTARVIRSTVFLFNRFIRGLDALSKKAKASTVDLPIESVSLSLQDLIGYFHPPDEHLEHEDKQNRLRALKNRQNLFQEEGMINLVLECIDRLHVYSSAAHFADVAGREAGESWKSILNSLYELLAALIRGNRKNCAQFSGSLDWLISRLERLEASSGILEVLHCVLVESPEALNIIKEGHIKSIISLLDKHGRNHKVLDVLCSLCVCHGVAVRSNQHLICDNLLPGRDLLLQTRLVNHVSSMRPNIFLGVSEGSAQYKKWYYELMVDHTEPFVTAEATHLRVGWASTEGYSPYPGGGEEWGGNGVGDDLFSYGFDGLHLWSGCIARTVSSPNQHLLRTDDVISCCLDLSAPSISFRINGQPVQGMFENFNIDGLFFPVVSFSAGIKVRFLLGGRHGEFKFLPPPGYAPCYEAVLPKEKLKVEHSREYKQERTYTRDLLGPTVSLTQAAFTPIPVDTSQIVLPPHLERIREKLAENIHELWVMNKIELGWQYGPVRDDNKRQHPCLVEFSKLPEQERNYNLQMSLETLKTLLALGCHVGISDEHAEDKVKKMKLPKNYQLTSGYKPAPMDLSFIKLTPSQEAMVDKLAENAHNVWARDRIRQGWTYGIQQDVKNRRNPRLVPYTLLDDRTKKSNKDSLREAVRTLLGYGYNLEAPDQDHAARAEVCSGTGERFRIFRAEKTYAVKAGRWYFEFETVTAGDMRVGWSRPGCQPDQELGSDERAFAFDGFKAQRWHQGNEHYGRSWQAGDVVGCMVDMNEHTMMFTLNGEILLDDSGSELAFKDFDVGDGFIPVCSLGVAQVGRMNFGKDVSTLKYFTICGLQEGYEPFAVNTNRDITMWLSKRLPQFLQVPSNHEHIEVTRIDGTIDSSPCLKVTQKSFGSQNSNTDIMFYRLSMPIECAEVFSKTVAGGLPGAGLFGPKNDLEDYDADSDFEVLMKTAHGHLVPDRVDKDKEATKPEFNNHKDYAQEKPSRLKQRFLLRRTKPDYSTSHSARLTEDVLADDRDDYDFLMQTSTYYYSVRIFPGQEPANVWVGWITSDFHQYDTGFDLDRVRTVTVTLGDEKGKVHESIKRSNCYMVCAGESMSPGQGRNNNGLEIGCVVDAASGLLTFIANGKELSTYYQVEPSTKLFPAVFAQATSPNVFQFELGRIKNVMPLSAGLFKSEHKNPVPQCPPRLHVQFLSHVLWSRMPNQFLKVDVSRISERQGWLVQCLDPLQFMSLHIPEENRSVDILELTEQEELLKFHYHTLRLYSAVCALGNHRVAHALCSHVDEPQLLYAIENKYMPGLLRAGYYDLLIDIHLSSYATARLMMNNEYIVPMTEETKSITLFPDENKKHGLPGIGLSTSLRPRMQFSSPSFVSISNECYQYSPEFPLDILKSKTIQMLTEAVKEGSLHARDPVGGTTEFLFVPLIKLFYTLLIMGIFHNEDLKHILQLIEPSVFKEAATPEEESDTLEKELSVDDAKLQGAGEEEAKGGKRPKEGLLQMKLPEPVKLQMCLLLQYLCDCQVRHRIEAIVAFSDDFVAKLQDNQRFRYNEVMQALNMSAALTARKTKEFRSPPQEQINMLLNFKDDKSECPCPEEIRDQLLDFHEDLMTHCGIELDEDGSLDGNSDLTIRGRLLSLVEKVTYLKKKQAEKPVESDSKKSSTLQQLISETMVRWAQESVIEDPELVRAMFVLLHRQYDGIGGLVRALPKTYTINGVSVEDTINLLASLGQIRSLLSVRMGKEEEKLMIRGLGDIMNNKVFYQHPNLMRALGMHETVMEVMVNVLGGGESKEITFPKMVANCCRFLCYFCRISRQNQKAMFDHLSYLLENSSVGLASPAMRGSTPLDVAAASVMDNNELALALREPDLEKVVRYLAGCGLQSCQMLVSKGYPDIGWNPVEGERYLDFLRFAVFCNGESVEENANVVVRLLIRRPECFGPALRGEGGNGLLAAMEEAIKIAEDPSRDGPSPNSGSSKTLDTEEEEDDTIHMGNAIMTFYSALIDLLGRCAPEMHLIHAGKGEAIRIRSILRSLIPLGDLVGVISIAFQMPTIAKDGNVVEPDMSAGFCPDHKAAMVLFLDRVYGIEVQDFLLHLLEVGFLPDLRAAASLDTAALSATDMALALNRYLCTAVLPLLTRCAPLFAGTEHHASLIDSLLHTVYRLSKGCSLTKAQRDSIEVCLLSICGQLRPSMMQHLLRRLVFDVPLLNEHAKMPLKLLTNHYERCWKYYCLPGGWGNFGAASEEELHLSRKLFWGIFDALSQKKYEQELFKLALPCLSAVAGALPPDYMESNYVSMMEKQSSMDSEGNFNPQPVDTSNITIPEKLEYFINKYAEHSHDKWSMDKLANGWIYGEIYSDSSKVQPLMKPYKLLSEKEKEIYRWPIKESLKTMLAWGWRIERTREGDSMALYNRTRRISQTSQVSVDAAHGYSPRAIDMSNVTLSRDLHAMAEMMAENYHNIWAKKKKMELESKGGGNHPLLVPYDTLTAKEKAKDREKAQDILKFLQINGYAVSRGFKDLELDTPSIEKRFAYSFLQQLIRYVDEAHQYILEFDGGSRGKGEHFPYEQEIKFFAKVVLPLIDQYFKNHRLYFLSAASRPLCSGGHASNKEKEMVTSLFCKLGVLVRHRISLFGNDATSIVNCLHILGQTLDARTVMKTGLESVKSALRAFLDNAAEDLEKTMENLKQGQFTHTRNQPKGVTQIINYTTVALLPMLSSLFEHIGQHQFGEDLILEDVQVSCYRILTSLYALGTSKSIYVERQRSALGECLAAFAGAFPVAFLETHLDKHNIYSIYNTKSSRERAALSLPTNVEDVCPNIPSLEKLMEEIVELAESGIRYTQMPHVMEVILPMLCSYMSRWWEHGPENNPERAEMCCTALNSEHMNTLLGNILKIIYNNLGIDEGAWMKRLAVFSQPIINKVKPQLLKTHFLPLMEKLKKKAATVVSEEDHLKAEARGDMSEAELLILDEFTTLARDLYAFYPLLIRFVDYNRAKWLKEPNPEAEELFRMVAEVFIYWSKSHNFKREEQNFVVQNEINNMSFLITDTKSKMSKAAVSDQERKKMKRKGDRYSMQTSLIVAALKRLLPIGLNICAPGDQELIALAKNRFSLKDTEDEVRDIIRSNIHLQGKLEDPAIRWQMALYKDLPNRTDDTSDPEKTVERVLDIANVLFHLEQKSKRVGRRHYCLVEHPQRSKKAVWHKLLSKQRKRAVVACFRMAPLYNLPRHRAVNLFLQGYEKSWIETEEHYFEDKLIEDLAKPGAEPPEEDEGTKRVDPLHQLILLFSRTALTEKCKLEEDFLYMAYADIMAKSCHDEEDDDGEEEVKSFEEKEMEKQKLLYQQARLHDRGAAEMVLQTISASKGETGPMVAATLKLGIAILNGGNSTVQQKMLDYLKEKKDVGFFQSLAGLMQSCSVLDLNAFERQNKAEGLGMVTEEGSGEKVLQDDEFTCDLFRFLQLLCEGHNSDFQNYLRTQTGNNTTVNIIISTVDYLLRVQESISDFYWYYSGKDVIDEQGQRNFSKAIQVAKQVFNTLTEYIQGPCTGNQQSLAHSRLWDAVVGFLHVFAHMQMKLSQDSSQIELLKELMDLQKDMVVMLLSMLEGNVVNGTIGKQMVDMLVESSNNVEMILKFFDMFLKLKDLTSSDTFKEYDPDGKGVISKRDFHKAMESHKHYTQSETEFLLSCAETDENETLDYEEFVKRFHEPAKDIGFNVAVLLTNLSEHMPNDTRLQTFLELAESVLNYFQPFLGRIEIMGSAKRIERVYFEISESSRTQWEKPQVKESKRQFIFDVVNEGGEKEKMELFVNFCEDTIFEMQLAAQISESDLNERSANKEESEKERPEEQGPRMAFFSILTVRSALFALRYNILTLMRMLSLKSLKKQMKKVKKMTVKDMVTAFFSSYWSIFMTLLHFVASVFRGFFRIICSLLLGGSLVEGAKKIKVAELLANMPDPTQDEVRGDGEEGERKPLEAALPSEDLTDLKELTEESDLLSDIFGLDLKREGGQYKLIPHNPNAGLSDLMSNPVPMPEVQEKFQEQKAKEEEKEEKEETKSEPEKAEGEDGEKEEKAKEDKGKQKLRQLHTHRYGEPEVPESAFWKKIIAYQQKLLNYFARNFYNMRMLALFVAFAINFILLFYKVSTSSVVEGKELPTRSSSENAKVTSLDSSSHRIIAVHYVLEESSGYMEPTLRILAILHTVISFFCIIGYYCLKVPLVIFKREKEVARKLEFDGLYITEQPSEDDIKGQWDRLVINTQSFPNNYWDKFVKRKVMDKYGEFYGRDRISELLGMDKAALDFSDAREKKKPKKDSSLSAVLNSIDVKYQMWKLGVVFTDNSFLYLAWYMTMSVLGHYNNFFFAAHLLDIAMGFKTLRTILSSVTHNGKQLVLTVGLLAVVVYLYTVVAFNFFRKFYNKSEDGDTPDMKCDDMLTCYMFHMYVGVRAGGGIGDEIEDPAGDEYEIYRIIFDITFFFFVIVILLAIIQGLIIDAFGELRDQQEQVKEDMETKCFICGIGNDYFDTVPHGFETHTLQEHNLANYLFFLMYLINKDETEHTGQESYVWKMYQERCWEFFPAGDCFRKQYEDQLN

Molecular target: RyR2 (cardiac receptor) (Homo sapiens, UniProt Q92736)
Conditions: for open probability Po: control Po=0.83

COc1ccc2c(c1)CN(C(=O)CCN1CCC(Cc3ccccc3)CC1)CCS2 [K201]
decrease in Po (0.5 μM K201, Po to state 1): about 50% | open probability Po (0.5 μM K201, FIG. 10B): 0.42 | open probability Po (1.0 μM K201, FIG. 10C): 0.014 | sensitivity of RyR2 to inhibition relative to RyR1 (RyR2 vs RyR1): ~8 fold

Like-named read-outs stand apart in the source and are kept apart here.
